Non-standard residues stand in square brackets, D forms with d. Residues, ends and D or L forms follow the SMILES beside them.
Assays:
SCLC cell lines = settings: 20 μM; 3 of 3 lines tested (H69, H345, H510A)
[1] = test system: small cell lung cancer (SCLC) cell lines; experiment: Growth in vitro of small cell lung cancer (SCLC) cell lines; settings: active in 6 of 6 cell lines tested: H69, H128, H209, H345, H510A and UCH25

CC(C)C[C@H](NC(=O)[C@H](CC(C)C)NC(=O)[C@@H](Cc1c[nH]c2ccccc12)NC(=O)[C@H](Cc1ccccc1)NC(=O)[C@@H](Cc1c[nH]c2ccccc12)NC(=O)[C@H](CCC(N)=O)NC(=O)[C@@H](Cc1ccccc1)NC(=O)[C@@H]1CCCN1C(=O)[C@H](CCCCN)NC(=O)[C@@H]1CCCN1C(=O)[C@H](N)CCCNC(=N)N)C(N)=O [antagonist D, D-Arg-Pro-Lys-Pro-D-Phe-Gln-D-Trp-Phe-D-Trp-Leu-Leu-NH2] (H-[dR]PKP[dF]Q[dW]F[dW]LL-NH2)
block of intracellular [Ca2+] responses to bradykinin, GRP and vasopressin (SCLC cell lines): blocked
concentration that abolishes cell growth [1]: 40 to 50 µM
